Earlier results on one substance are cited in patent publication US7163589B2 (priority 2001, dated 2007).

For the data set the following is noted: cited from earlier work.

Consider 2-3 dihydrodecafluoropentane, for which the “Solubility of Solvent in Water” value is reported as 140 ppm and the “Solubility of Water in Solvent” value was 490 ppm.
